Laboratory results as given in ChEMBL document CHEMBL5518233, “Design and Synthesis of 3-(2H-Chromen-3-yl)-5-aryl-1,2,4-oxadiazole Derivatives as Novel Toll-like Receptor 2/1 Agonists That Inhibit Lung Cancer In Vitro and In Vivo” (J Med Chem, 2024).
Calls of active or inactive are those of the source.

Chains of the proteins cited; added tags and fusions are not shown.
UniProt O00206, whole entry: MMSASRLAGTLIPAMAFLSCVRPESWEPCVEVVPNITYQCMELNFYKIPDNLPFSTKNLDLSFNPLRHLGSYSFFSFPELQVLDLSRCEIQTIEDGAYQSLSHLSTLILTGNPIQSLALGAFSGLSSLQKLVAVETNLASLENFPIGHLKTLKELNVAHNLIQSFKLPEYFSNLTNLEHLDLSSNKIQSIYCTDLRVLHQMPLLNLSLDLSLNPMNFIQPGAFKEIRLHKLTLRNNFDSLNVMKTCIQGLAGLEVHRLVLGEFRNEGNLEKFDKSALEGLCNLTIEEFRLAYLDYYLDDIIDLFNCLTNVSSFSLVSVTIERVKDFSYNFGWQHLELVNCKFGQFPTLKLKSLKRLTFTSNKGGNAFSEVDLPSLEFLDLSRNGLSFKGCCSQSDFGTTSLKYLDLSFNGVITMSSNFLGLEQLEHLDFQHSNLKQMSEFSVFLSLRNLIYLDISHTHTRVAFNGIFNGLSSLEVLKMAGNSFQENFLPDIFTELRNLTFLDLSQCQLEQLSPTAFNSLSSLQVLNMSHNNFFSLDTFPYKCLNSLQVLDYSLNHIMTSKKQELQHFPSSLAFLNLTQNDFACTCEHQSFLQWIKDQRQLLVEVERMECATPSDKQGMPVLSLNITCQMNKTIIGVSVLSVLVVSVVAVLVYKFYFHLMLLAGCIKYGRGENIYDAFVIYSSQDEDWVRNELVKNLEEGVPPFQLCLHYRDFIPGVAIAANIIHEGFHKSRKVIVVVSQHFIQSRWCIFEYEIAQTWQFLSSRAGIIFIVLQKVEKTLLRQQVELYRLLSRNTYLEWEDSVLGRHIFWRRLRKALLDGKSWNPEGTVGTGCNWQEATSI
UniProt O60602, whole entry: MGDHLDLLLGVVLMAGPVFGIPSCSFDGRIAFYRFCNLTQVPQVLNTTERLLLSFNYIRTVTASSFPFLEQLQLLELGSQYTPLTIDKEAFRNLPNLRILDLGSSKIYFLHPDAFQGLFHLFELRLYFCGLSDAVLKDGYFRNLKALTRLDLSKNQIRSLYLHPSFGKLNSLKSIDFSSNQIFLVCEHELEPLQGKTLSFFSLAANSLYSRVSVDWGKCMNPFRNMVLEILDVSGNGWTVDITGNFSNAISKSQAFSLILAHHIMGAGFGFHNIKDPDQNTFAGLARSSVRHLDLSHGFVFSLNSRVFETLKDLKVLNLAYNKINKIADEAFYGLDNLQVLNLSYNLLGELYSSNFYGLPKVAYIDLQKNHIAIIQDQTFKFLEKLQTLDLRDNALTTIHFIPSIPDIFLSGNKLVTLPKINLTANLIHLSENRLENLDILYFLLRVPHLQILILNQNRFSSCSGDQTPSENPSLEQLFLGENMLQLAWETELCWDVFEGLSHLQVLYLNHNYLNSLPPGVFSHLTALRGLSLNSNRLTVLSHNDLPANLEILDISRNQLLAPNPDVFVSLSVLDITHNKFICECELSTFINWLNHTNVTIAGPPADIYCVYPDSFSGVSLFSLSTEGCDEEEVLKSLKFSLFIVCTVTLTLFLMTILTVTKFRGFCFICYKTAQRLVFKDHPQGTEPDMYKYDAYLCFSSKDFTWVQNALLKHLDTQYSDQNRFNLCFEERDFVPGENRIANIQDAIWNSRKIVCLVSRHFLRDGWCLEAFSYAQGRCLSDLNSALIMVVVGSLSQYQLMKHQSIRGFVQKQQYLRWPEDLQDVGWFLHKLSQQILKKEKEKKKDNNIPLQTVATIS

Columns and labels:
Format in all cases: cell-based
Conditions in all cases: dose 0.01-50 µM
[1] = molecular target: Toll-like receptor 4 (Homo sapiens) (UniProt O00206); experiment: Agonist activity at human TLR4 transfected in HEK293T cells at 0.01 to 50 uM incubated for 24 hrs by dual luciferase reporter gene assay
[2] = molecular target: Toll-like receptor 5 (Homo sapiens) (UniProt O60602); experiment: Agonist activity at human TLR5 transfected in HEK293T cells at 0.01 to 50 uM incubated for 24 hrs by dual luciferase reporter gene assay
[3] = molecular target: T1, Toll-like receptor 3 (Homo sapiens) (UniProt O15455); experiment: Agonist activity at human TLR3 transfected in HEK293T cells at 0.01 to 50 uM incubated for 24 hrs by dual luciferase reporter gene assay
T1 sequence (whole entry): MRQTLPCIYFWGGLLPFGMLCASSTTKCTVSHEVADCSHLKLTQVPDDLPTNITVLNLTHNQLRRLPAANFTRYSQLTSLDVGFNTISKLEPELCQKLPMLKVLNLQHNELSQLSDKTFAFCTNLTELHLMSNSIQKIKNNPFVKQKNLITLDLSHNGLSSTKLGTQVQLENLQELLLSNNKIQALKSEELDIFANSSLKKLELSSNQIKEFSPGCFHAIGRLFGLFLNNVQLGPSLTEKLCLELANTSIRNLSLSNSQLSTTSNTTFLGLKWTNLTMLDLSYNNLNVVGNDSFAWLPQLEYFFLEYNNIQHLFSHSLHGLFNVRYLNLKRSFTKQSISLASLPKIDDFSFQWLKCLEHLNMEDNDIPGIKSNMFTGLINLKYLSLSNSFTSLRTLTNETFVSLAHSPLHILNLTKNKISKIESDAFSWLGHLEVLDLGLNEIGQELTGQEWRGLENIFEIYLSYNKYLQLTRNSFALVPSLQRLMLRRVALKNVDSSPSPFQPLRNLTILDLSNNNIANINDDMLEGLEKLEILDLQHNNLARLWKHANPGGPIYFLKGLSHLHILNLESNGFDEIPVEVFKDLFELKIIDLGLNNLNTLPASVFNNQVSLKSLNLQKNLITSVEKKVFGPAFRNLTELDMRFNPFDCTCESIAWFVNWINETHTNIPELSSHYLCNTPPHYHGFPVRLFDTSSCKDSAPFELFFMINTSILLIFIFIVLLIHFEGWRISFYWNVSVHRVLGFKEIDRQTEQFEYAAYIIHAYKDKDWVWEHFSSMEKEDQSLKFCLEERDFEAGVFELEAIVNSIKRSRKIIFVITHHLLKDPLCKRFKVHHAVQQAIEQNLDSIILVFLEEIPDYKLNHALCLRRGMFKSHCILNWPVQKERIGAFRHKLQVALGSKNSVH

[4] = molecular target: T2, Toll-like receptor 9 (Homo sapiens) (UniProt Q9NR96); experiment: Agonist activity at human TLR9 transfected in HEK293T cells at 0.01 to 50 uM incubated for 24 hrs by dual luciferase reporter gene assay
T2 sequence (whole entry): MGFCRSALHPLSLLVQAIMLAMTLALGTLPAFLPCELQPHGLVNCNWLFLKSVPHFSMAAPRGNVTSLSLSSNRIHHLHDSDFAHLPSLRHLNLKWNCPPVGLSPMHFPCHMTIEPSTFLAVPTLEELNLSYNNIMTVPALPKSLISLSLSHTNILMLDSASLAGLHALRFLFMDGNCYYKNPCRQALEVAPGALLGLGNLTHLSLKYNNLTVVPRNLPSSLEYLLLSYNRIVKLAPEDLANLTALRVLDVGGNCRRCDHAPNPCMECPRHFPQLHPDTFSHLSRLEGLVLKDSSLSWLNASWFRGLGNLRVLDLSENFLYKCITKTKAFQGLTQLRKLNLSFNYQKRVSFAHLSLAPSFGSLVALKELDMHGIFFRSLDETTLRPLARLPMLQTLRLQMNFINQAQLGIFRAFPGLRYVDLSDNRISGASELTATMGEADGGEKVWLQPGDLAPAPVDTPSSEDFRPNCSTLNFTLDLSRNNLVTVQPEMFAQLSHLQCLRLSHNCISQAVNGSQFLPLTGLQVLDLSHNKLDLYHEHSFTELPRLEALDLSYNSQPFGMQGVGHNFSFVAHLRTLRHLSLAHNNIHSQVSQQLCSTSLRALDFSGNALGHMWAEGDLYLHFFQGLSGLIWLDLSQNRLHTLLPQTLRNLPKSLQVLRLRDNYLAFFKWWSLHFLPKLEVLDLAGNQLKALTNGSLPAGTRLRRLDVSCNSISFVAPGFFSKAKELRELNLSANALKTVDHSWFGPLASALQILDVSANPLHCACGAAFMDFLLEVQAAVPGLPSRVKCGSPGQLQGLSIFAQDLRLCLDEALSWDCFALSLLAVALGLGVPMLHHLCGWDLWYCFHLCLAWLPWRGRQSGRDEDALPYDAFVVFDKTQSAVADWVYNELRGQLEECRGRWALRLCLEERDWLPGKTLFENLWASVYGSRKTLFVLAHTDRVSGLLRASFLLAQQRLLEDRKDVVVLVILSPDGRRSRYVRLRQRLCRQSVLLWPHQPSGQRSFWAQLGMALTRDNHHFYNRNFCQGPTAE

Measured: Activity

O=[N+]([O-])c1ccc(F)c(-c2nc(C3=Cc4cc(F)ccc4OC3)no2)c1
inactive: all assays above
